Chains of the proteins cited; added tags and fusions are not shown. Residues count along the entry.
UniProt Q9NYK1, 27-1049 limits assumed: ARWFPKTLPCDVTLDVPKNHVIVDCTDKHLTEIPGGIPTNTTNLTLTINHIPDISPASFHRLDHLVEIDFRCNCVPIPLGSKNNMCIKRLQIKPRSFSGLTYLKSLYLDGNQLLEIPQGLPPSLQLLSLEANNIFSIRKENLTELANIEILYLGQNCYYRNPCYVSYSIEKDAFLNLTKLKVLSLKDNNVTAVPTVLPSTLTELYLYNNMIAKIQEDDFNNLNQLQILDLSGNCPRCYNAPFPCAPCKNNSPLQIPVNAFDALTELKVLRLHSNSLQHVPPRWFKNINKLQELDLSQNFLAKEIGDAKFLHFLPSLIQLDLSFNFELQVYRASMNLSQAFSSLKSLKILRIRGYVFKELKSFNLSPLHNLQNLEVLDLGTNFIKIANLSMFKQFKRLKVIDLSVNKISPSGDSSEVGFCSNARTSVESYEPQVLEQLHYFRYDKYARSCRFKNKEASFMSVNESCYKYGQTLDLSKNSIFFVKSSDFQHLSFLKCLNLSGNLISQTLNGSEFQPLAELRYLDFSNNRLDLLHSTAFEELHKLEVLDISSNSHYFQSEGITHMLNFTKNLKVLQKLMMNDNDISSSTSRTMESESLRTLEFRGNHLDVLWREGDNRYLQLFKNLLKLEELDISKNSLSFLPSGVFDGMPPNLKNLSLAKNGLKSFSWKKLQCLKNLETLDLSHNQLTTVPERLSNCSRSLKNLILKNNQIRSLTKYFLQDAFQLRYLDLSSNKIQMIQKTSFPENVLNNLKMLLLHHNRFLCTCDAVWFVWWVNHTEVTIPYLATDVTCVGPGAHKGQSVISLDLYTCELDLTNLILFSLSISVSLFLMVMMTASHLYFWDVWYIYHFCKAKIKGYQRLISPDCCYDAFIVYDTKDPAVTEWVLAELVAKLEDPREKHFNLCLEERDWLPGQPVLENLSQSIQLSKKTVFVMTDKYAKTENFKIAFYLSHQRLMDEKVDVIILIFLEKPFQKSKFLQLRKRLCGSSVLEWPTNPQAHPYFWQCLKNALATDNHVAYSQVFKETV
UniProt Q9NR97, 27-1041 limits assumed: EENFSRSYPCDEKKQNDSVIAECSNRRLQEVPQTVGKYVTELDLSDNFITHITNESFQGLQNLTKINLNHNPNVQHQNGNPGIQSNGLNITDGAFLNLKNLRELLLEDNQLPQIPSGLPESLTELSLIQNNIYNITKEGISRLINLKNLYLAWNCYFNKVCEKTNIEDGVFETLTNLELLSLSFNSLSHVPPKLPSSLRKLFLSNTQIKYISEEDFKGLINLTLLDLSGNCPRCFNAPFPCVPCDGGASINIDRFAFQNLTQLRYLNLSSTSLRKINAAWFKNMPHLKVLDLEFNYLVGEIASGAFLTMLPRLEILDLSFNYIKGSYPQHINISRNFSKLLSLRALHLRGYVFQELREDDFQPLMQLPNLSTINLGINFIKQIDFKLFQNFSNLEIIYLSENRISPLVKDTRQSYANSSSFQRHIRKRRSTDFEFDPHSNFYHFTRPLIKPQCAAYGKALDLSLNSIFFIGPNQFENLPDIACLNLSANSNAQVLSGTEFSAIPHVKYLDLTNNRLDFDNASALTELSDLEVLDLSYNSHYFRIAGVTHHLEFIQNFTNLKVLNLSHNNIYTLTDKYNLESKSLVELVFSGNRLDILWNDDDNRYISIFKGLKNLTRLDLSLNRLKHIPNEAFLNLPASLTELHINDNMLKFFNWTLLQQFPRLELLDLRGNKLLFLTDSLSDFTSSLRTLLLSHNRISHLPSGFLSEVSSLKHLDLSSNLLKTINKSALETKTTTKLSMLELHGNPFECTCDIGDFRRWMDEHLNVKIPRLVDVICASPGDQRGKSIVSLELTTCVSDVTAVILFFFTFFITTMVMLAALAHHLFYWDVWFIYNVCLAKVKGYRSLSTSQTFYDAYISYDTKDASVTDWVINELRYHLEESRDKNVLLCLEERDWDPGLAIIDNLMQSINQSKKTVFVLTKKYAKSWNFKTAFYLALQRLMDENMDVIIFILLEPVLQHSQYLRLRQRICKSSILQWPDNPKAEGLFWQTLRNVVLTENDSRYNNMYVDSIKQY
UniProt Q9NR96, 26-1032 limits assumed: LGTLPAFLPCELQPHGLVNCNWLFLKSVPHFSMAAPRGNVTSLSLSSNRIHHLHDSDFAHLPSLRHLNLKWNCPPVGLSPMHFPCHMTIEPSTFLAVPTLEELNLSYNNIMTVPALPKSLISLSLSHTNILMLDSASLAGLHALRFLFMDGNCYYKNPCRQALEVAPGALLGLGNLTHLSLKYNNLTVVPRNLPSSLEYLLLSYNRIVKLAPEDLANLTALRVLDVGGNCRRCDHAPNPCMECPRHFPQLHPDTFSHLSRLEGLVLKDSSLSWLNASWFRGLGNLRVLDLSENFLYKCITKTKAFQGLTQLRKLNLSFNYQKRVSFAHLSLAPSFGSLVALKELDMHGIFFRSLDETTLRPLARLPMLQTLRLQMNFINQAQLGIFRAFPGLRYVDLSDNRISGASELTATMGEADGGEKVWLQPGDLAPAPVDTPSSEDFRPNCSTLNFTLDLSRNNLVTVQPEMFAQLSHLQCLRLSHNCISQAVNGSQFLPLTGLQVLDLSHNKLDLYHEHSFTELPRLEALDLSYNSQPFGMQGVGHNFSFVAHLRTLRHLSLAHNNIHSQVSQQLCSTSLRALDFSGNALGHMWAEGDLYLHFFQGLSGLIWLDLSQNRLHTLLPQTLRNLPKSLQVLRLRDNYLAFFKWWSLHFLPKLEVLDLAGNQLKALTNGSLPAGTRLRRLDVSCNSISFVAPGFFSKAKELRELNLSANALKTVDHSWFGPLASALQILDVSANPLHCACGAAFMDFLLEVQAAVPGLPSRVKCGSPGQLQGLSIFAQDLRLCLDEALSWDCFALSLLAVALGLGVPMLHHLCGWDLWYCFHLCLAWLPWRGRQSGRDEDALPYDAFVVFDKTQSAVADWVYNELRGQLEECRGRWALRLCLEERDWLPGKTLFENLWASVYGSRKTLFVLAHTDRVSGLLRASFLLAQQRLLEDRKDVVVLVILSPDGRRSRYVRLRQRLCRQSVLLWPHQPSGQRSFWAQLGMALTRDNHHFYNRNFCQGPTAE

In patent US11878975B2, “Substituted indole compounds useful as TLR inhibitors” (BRISTOL-MYERS SQUIBB COMPANY, priority 2017, dated 2024):

Tests used:
human TLR7 = human TLR7 (Homo sapiens, UniProt Q9NYK1); assay: TLR7 inhibition reporter assay (HEK-Blue cells, SEAP reporter, gardiquimod stimulation); conditions: read-out: TLR7 IC50; HEK-Blue cells overexpressing human TLR7, SEAP reporter, gardiquimod 7.5 μM
Protocol: (§1) TLR7/8/9 Inhibition Reporter Assays
(§2) HEK-Blue™-cells (Invivogen) overexpressing human TLR7, TLR8 or TLR9 receptors were used for screening inhibitors of these receptors using an inducible SEAP (secreted embryonic alkaline phosphatase) reporter gene under the control of the IFN-β minimal promoter fused to five NF-κB and AP-1-binding sites. Briefly, cells are seeded into Greiner 384 well plates (15000 cells per well for TLR7, 20,000 for TLR8 and 25,000 for TLR9) and then treated with test compounds in DMSO to yield a final dose response concentration range of 0.05 nM-50 μM. After a 30 minute compound pre-treatment al room temperature, the cells are then stimulated with a TLR7 ligand (gardiquimod at a final concentration of 7.5 μM), TLR8 ligand (R848 at a final concentration of 15.9 μM) or TLR9 ligand (ODN2006 at a final concentration of 5 nM) to activate NF-κB and AP-1 which induce the production of SEAP. After a 22 hour incubation at 37° C., 5% CO2, SEAP levels are determined with the addition of HEK-Blue™ Detection reagent (Invivogen), a cell culture medium that allows for detection of SEAP, according to manufacturer's specifications. The percent inhibition is determined as the % reduction in the HEK-Blue signal present in wells treated with agonist plus DMSO alone compared to wells treated with a known inhibitor.

human TLR8 = human TLR8 (Homo sapiens, UniProt Q9NR97); assay: TLR8 inhibition reporter assay (HEK-Blue cells, SEAP reporter, R848 stimulation); conditions: read-out: TLR8 IC50; HEK-Blue cells overexpressing human TLR8, SEAP reporter, R848 15.9 μM
Protocol: as §1, §2

human TLR9 = human TLR9 (Homo sapiens, UniProt Q9NR96); assay: TLR9 inhibition reporter assay (HEK-Blue cells, SEAP reporter, ODN2006 stimulation); format: cell-based; conditions: read-out: TLR9 IC50; HEK-Blue cells overexpressing human TLR9, SEAP reporter, ODN2006 5 nM
Protocol: as §1, §2

| Compound | IC50 (human TLR7) [nM] | IC50 (human TLR8) [nM] | IC50 (human TLR9) [nM] |
| --- | --- | --- | --- |
| COc1cc(-c2[nH]c3ccc(C4CN(CC(=O)N(C)C)CCO4)cc3c2C(C)C)cn2ncnc12 (stereo not drawn) [Example 314] | 18 | 50 | > 50000 |
| Cc1c(-c2[nH]c3ccc(C4CN(CCNS(C)(=O)=O)C4)cc3c2C(C)C)cn2ncnc2c1C | 2 | 2.1 | 2550 |
| Cc1c(-c2[nH]c3ccc(C4CCCN(CC(C)(C)O)C4)cc3c2C(C)C)cn2ncnc2c1C (stereo not drawn) | 19 | 5.1 | 5860 |
| Cc1c(-c2[nH]c3ccc(C4CC(NC(=O)CN(C)C)C4)cc3c2C(C)C)cn(C)c(=O)c1C (stereo not drawn) [Example 490] | 20 | 4.7 | > 50000 |
| COc1ccc(-c2[nH]c3ccc(C4CCC5CC(C4)N5C(=O)CN(C)C)cc3c2C(C)C)cc1OC (stereo not drawn) | 15 | 111 | 1160 |
